Reference: patent US20140193338A1, “COMPOUNDS FOR USE IN IMAGING, DIAGNOSING AND/OR TREATMENT OF DISEASES OF THE CENTRAL NERVOUS SYSTEM” (PIRAMAL IMAGING SA, priority 2011, published 2014)

Protein sequences, listed by entry. Tags and fused reporters are not part of them.
UniProt P27338, whole entry: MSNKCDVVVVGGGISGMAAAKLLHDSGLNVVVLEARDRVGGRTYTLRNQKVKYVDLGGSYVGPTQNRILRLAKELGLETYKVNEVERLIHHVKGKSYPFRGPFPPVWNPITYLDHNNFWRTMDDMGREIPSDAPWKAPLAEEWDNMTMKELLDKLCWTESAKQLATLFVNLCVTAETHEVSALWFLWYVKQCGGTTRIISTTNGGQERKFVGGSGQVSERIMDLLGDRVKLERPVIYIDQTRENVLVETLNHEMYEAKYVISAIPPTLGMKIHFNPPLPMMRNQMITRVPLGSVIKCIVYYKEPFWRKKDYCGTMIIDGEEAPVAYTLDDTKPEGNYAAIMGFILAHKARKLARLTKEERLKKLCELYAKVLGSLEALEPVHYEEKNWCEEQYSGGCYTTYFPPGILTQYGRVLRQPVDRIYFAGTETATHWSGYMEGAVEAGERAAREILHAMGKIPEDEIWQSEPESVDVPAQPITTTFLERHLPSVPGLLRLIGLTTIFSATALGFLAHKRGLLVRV

Target: T1, MAO-B (Homo sapiens, UniProt P27338)
T1 construct: Autoradiography using [^18F]rasagiline on human brain slices from a healthy subject; from tissue; host or cells: human brain hemisphere cryosections (100 µm)
Experiment: Autoradiography with [^18F]rasagiline on human brain sections, blocking with excess inhibitor
Format: binding
Conditions: excess (10 μM) of the inhibitor in the incubation solution
Method: Binding of the [^18F]rasagiline (compound of formula F) was investigated on human brain sections from normal subjects using a standard protocol.
In brief, whole brain hemispheres were cut at a 100 μm thickness in a Cryocut (Leica, Germany), thaw mounted onto gelatine glass slides and kept at −25° C. before use. Thereafter, the slides containing the regions of interest (e.g. hippocampus, thalamus) were removed and brought to room temperature. The sections were incubated with 0.2 MBq/mL [^18F] compound F in 50 mM TRIS/0.1% BSA (pH 7.4) with salts (120 mM NaCl, 5 mM KCl, 1 mM CaCl2, 1 mM MgCl2) for 90 min at room temperature and washed three times for 5 min each in 50 mM TRIS (pH 7.4). The sections were dipped once into ice cold distilled water, dried at room temperature and exposed to PhosphorImager plates (FUJI BAS 5000) overnight.
For detection of the specificity of the signals an excess (10 μM) of deprenyl, rasagiline (both for MAO-B) and pirlindole (for MAO-A), respectively, was used together with the ^18F labelled rasagiline (compound F).

- blocking of the [^18F]rasagiline (compound F) autoradiography signal: could not be blocked
SMILES: Cc1ccc2c(c1)c1c3n2CCNC3CCC1 (stereo not shown) [pirlindole]
